The results in this text go back to US20260035367A1 (Celgene Corporation, priority 2021, published 2026).

By UniProt entry, the sequences of proteins in these tests, tags left out. Residues count along the entry.
UniProt Q04759, 362-706 limits assumed: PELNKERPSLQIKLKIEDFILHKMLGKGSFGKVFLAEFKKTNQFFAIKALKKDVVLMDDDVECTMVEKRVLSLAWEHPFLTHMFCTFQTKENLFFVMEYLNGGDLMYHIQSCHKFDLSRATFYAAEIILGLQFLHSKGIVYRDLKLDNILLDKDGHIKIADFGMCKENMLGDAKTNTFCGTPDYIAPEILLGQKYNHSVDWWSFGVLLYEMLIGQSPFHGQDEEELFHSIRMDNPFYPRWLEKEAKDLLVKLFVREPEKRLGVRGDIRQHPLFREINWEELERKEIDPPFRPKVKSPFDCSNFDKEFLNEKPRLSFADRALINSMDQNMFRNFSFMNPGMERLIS
UniProt Q05655, 345-676 limits assumed: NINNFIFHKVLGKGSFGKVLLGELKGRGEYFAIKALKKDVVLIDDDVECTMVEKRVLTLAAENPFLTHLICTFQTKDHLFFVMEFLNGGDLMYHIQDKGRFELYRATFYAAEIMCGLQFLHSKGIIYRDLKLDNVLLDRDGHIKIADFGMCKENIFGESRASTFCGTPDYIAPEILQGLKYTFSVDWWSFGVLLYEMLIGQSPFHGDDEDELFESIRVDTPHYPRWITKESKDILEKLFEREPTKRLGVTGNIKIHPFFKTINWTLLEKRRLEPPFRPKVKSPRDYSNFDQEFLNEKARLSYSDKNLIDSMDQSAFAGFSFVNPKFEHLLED

Molecules are shown by their SMILES.

Test [1] deals with Recombinant human PKC-theta (His-tagged 362-706) (Homo sapiens, UniProt Q04759). The test is described as follows: PKC-theta inhibition assay (HTRF KinEASE kit). As to conditions: ATP 6.5 μM, STK substrate 525 nM; for PKC-theta HTRF pIC50 (binned): binned A to H. For orientation: Time-resolved FRET reads energy transfer from a long-lived donor to a nearby acceptor.
Test [2] concerns the target Recombinant human PKC-delta (His-tagged 345-676) (Homo sapiens, UniProt Q05655). Kind of test: PKC-delta inhibition assay (HTRF KinEASE kit). The class given is biochemical. To be noted: ratio, PKC-theta vs PKC-delta HTRF; for PKC-theta/PKC-delta selectivity (binned): binned A to G.
Test [3] deals with IL-2 secretion by human effector memory T cells (TEM). Kind of test: Effector memory T cells IL-2 release assay (CD3/CD28 stimulation, HTRF IL-2 detection). To be noted: 24 h; for PKC-theta IL2 pIC50 (binned): binned A to G.

Regarding `C[C@H]1CN(c2cc(C(C)(F)F)cc(-c3ccnc4c3C(C)(C)C(=O)N4)n2)CCN1`, in test [1], the “PKC-theta HTRF pIC50” value is on record as 8.5; the “PKC-theta HTRF pIC50 (binned)” value is “B (a measured pIC50 of between 8.5 and 9.0)”. Also, in test [2], the PKC-theta/PKC-delta selectivity was 23; the “PKC-theta/PKC-delta selectivity (binned)” value is “C (a ratio of between 20 and 30)”. Moreover, in test [3], the “PKC-theta IL2 pIC50” value is reported as 7.5; the “PKC-theta IL2 pIC50 (binned)” value was “D (a measured pIC50 of between 7.0 and 7.5)”.

Consider `CC(F)(F)c1cc(-c2ccnc3c2C(C)(C)C(=O)N3)nc(N2CCNCC2)c1`, for which, in test [1], the “PKC-theta HTRF pIC50” value stood at 8.3; the “PKC-theta HTRF pIC50 (binned)” value is “C (a measured pIC50 of between 8.0 and 8.5)”. In test [2], the PKC-theta/PKC-delta selectivity stood at 14; the “PKC-theta/PKC-delta selectivity (binned)” value was “D (a ratio of between 10 and 20)”. In addition, in test [3], the “PKC-theta IL2 pIC50” value amounted to 7.3; the “PKC-theta IL2 pIC50 (binned)” value was “D (a measured pIC50 of between 7.0 and 7.5)”.

For `C[C@H]1NCCN(c2cc(C(C)(F)F)cc(-c3ccnc4c3C(C)(C)C(=O)N4)n2)[C@H]1C`, in test [1], the “PKC-theta HTRF pIC50” value is 8.1; the “PKC-theta HTRF pIC50 (binned)” value was “C (a measured pIC50 of between 8.0 and 8.5)”. In addition, in test [2], the PKC-theta/PKC-delta selectivity was 26; the “PKC-theta/PKC-delta selectivity (binned)” value was “C (a ratio of between 20 and 30)”. In test [3], the “PKC-theta IL2 pIC50” value stood at 7.0; the “PKC-theta IL2 pIC50 (binned)” value was “D (a measured pIC50 of between 7.0 and 7.5)”.

`C[C@@H]1NCCN(c2cc(C(C)(F)F)cc(-c3ccnc4c3C(C)(C)C(=O)N4)n2)[C@@H]1C`: in test [1], the “PKC-theta HTRF pIC50” value amounted to 9.4; the “PKC-theta HTRF pIC50 (binned)” value was “A (a measured pIC50 of between 9.0 and 9.5)”. Moreover, in test [2], the PKC-theta/PKC-delta selectivity worked out at 30; the “PKC-theta/PKC-delta selectivity (binned)” value is “B (a ratio of between 30 and 50)”. Moreover, in test [3], the “PKC-theta IL2 pIC50” value turned out to be 8.3; the “PKC-theta IL2 pIC50 (binned)” value is “B (a measured pIC50 of between 8.0 and 8.5)”.

Turning to `C[C@@H]1CNCCN1c1cc(C(C)(F)F)cc(-c2ccnc3c2C(C)(C)C(=O)N3)n1`, in test [1], the “PKC-theta HTRF pIC50” value is on record as 9.0; the “PKC-theta HTRF pIC50 (binned)” value was “A (a measured pIC50 of between 9.0 and 9.5)”. Also, in test [2], the PKC-theta/PKC-delta selectivity came to 18; the “PKC-theta/PKC-delta selectivity (binned)” value is “D (a ratio of between 10 and 20)”. Also, in test [3], the “PKC-theta IL2 pIC50” value is reported as 8.1; the “PKC-theta IL2 pIC50 (binned)” value is “B (a measured pIC50 of between 8.0 and 8.5)”.
